Experiment: Payload determination, high molecular weight substance (Herceptin), polyacrylamide gel electrophoresis
Type: physicochemical
Procedure: To determine the phospholipid concentration of liposomes, 10 μl of each liposome solution was placed in a 16×100 mm glass tube along with 0.4 ml of 10 N sulfuric acid. A set of phosphate standards was prepared from a 0.645 mM stock (Sigma P3869) which was also assayed in glass tubes alongside the liposome samples. Samples, standards and blank tubes were run in duplicate. All tubes were placed in a heating block and digested for 30 minutes at 180° C. Tubes were then removed from the heating block and cooled for 5 minutes before adding 100 μl of 9% hydrogen peroxide. All tubes were then again heated for 30 minutes at 180° C. […] All standards, samples and blanks were read at 820 nm on a spectrophotometer. Using the known standard values, a curve was generated from which phosphate concentration values can be calculated for each of the liposome samples. Phosphate concentration values are expressed as μmoles Pi/mL. […]
Herceptin monoclonal antibody was used for the determination of payload capacity for a high molecular weight substance. Approximate amount of monoclonal antibody encapsulated in liposomes was determined by polyacrylamide gel electrophoresis. A liposome sample of known phosphate concentration was loaded on a gel alongside the reference lanes of known quantities of monoclonal antibody. […]

With “Herceptin: recombinant DNA-derived humanized monoclonal antibody that binds HER2” the “therapeutic agent portion of particle on a per weight basis” value (Herceptin liposomes) was “about 0.07%” and the “payload for herceptin antibody” value (antibody encapsulated in liposomes, approximated from gel band intensities) was “about 0.024 nmoles per 50 nmoles of phosphate”.

From patent US20070088414A1, “Particulate formulations for intradermal delivery of biologically active agents” (priority 2005, published 2007)
